Amino acid sequences for entries named in this document (tags omitted).
UniProt P08913, whole entry: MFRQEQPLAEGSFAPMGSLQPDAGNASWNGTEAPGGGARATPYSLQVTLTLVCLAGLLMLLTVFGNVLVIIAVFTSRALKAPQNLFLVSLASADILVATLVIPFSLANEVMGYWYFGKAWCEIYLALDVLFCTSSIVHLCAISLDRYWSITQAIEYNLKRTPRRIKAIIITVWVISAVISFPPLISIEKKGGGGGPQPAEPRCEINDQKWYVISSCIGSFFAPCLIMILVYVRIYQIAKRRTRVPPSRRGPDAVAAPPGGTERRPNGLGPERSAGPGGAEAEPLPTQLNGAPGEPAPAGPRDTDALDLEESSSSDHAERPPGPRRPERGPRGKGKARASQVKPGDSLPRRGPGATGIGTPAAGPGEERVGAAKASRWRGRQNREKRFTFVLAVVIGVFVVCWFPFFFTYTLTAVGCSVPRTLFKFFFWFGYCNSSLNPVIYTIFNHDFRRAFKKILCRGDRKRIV

According to ChEMBL document CHEMBL1142735, “Discovery of a new series of centrally active tricyclic isoxazoles combining serotonin (5-HT) reuptake inhibition with alpha2-adrenoceptor blocking activity” (J Med Chem, 2005):

Legend:
[1] = biological target: T1, Alpha-2A adrenergic receptor (Homo sapiens, UniProt P08913); experiment: Binding affinity for alpha-2A-adrenergic receptor; type: functional, Rattus norvegicus
[2] = biological target: T1, Alpha-2A adrenergic receptor; experiment: Inhibition of [3H]- rauwolscine binding to human alpha-2A adrenergic receptor
[3] = Effective dose for antagonism of pCA-induced excitation by subcutaneous administration; details: Rattus norvegicus
[4] = biological target: T1, Alpha-2A adrenergic receptor; experiment: Binding affinity for Alpha-2A adrenergic receptor

COc1cc2c(cc1OC)C1=NO[C@@H](CN3CCN(C/C=C(\C)c4ccccc4)CC3)[C@@H]1CO2
Ki [1]: 1.4 nM

COc1cc2c(cc1OC)C1=NO[C@@H](CN3CCN(Cc4ccc5ccccc5c4)CC3)[C@@H]1CO2
Ki [1]: 5 nM

COc1cccc2c1CCC[C@H]2CN(C)CCc1ccc2ccoc2c1
Ki [2]: 2.5 nM

CN1C[C@@H]2C(=NO[C@H]2CN2CCN(C/C=C/c3ccccc3)CC2)c2ccccc21
ED50 [3]: > 10 mg/kg
Ki [4]: 1.6 nM
